# Patent US9063123B2, “Transgenic mice expressing human toll-like receptor 8” (Dynavax Technologies Corporation, priority 2011, dated 2015)
# “Also recorded” adds a separate entry of the source.
# What was measured:
# [1] = biological target: T1, human TLR8 (hTLR8Tg mice) (Homo sapiens, UniProt Q9NR97); experiment: Serum IL-12 after intravenous TLR8 agonist in TLR8Tg Clone 8 mice; type: in vivo; conditions: serum 6 hr later, ORN8-L 300 μg, CL075 5 μg
# T1 construct: the human BAC carrying TLR8 gene was obtained from the RPCIB-753 BAC library; expressed in transfected cells; host or cells: Blood cells, bone marrow cells and PBMC of hTLR8 transgenic mice, and the whole animals; The mice came from C57BL/6NTac ES cells transfected with the BAC: the Clone 8 germline line and chimeras
# T1 sequence (Q9NR97 27-1041): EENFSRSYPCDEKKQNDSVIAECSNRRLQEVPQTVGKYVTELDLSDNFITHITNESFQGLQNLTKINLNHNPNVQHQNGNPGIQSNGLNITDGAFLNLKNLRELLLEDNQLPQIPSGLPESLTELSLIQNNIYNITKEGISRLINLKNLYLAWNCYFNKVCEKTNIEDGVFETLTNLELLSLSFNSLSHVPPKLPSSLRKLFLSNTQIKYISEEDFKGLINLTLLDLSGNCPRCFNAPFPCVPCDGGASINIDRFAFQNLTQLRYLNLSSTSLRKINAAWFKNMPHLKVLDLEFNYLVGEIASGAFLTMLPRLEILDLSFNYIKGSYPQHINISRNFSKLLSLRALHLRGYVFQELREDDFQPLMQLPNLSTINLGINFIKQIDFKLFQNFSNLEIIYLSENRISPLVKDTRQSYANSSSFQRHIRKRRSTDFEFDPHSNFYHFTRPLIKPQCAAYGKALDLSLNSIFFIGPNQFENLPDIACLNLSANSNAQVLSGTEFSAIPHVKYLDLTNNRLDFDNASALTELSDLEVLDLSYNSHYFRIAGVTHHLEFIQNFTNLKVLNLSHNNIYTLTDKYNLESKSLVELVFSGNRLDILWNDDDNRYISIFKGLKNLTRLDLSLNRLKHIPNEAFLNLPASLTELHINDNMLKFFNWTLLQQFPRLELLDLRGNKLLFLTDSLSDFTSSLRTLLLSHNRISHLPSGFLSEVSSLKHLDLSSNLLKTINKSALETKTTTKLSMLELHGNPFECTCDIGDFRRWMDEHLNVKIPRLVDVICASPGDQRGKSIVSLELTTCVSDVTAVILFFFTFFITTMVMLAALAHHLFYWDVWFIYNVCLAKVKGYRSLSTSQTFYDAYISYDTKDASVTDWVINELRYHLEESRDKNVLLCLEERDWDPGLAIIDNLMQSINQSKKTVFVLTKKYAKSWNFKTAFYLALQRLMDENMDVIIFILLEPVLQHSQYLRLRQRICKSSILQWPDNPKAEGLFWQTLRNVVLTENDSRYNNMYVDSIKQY
# wild-type mice = experiment: Serum IL-12 after intravenous TLR8 agonist in wild-type mice; type: in vivo, mouse; conditions: wild-type mice injected intravenously
substance,measurement,setting,value
CL075,secretion of IL-12 in vivo (serum) in hTLR8Tg mice,[1],induced secretion; also recorded: elevated levels of IL-12
same,IL-12 in the serum of wild-type mice,wild-type mice,not from wild-type mice
